Experimental data: publication PMC4632246 (Analytical biochemistry, 2012)

Experiments:
[1] = molecular target: Hsp90α-NT (human Hsp90α immobilized via the N-terminal) (Homo sapiens, UniProt P07900); assay: Frontal chromatography on Hsp90α-NT column; assay type: binding; details: 10 mM Tris–HCl pH 7.4, 25 °C, ±SE
[2] = molecular target: Hsp90α-CT (human Hsp90α immobilized via the C-terminal) (Homo sapiens, UniProt P07900); assay: Frontal chromatography on Hsp90α-CT column; assay type: binding; details: 10 mM Tris–HCl pH 7.4, 25 °C, ±SE

Work on berbamine yielded a Kd [1] of 18.6 ± 3.8 µM and a Kd [2] of 18 ± 4.9 µM.

For isotetrandrine, the Kd [1] was 46.3 ± 14.8 µM and the Kd [2] was 29.9 ± 8.4 µM.
